The record followed here is PubChem BioAssay AID492947 (National Center for Advancing Translational Sciences (NCATS), 2010).

Values joined by “and” are separate entries in the source; they are usually repeats but may differ in a detail not shown here. Identical values can stand only once. The entries are a selection whose mix differs from that of the whole data set. Active and inactive are the calls of the source. The call rests on the fitted dose curve; in most records, active means well fitted activation curve with a large enough effect; inconclusive means small, poorly fitted or top-dose-only effect; inactive means flat fitted curve, though single readings scatter.

The target of the experiment is Beta-2 adrenergic receptor (Homo sapiens) (UniProt P07550). Put plainly: qHTS assay of beta-arrestin-biased ligands of beta2-adrenergic receptor.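 Further: 0% = DMSO controls and full agonism = EC100 isoproterenol or metaproterenol; nearly all actives have a fitted effect of over 65% in size.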 The settings on record: beta-arrestin recruitment to beta2AR, cell-based reporter; at 46.1 µM (top of the series). The source says: NIH Molecular Libraries Probe Production Network [MLPCN]
NIH Chemical Genomics Center [NCGC]
PI: Bryan Roth and Bob Lefkowitz
The concept of biased agonism is an emerging concept of molecular pharmacology which proposes that seven transmembrane receptors (7TMRs) or G protein-coupled receptors (GPCRs), exist in multiple signaling conformations and complexes and that ligands (either agonists or antagonists) can induce signaling biased responses for distinct signal transduction cascades.
Furthermore, accumulating evidence over the last decade has drawn attention to a novel function of beta-arrestins as signal transducers that scaffold various signaling molecules upon activation of 7TMRs. […] This beta-arrestin-biased signaling presumably leads to distinct physiological outcomes from those by G protein activation.
Additionally, the active receptor conformations which […] on this beta-arrestin signaling are likely different from those activating G protein signaling
The goal of this screening project will be to discover and optimize novel beta-arrestin-biased ligands for beta2-AR signaling. A luminescent cell-based assay for beta2-AR-mediated agonism, known as the Tango assay, has been validated in which ligand binding of a recombinant beta2-AR and subsequent recruitment of a recombinant beta-arrestin lead to the release of the transcriptional activator tTA, which upregulates transcription of a tTA-responsive luciferase gene. […] Compounds were screened as a concentration-titration series that ranged from 46 microM to 0.6 nM.
NCGC Assay Protocol Summary:
Tango cells were dispensed into white, solid, tissue-culture-treated 1536-well plates at 1500 cells/well in DMEM, containing 1% fetal bovine serum (FBS). Then, 23 nL of compounds or DMSO were delivered to each well using a pin tool. Plates were incubated at 37 degrees C, 5% CO2 for 18 hr. Then 2.5 uL luminescent substrate mix (in-house prepared: 150 mM Tris-Cl, pH 7.6, 3 mM MgCl2, 1% Triton X-100, 5 mM DTT, 0.5 mM CoA, 0.15 mM ATP, 0.44 mM D-luciferin, final concentrations) was added to each well. Plates were then incubated for 15 minutes at room temperature, and subsequently measured on a ViewLux plate reader for luminescent signal using a clear filter with a 10 second exposure and 2x binning. The %Activity was determined from the corrected luminescence values.
Concentration-response curves were fitted to the signals arising from the resulting luminescence. The concentration-effect curves were then classified based on curve quality (r2), response magnitude and degree of measured activity, and compounds were subsequently categorized based on their curve class.
Keywords: biased agonism, beta2-AR, beta-arrestin, GPCR, 7TMR, Tango, luminescence, MLSMR, MLPCN, NIH Roadmap, qHTS, NCGC
For orientation: qHTS replaces the single test concentration by a dilution series.
In the case of `COc1cc(C(=O)NCC2(N3CCOCC3)CCCCC2)ccc1OCC(C)C`, the activation was inactive: -0.0029%.

Turning to `C[As](=O)(O)c1cccc(C(=O)O)c1`, the activation was inactive: 0.494%.

As to `O=[As](O)(c1ccc(O)cc1)c1ccccc1O`, the activation is inactive: -0.445%.

For `O=[N+]([O-])c1cc([N+](=O)[O-])c(-c2ccn[nH]2)s1`, the activation is inactive: 0.446%.

As for `CC(C)NC(=O)NP(=O)(Oc1ccccc1)Oc1ccccc1`, the activation was inactive: -0.228%.

In the case of `CCN(CC)C(=S)SC(NC=O)C(Cl)(Cl)Cl` (stereo not drawn), the activation was inactive: 0.202%.

In the case of `CC(C)c1ccc(OP(=O)(Nc2ccccn2)Oc2ccccc2F)cc1` (stereo not drawn), the activation is inactive: 0.0369%.

For the compound `ClCCSc1nnc(-c2cccnc2)o1`, the activation is inactive: 2.74%.

With `Cc1ccc(NP(=O)(Oc2ccccc2F)Oc2ccccc2F)nc1`, the activation was inactive: -0.385%.

For the compound `Cc1cc(SC(NC(=O)c2ccc(F)cc2)C(Cl)(Cl)Cl)ncn1` (stereo not drawn), the activation is inactive: -0.614%.

For the compound `CCOP(=O)(Nc1ccccc1)OCC`, the activation is inactive: -0.229% and inactive: -0.0296%.

With `CC(=O)Nc1ccc([As](=O)(O)O)cc1`, the activation was inactive: -0.972%.

As to `O=C(O)c1ccccc1[As](=O)(O)O`, the activation was inactive: -0.788%.

For the compound `O=P(Nc1nc2ccc(Cl)cc2s1)(c1ccccc1)c1ccccc1`, the activation was inactive: 0.23%.

As for `CCN(N=Nc1nonc1N)c1nonc1N`, the activation is inactive: -0.286%.

In the case of `Nc1cccc2ccc([As](=O)(O)O)cc12`, the activation is inactive: -0.691%.

Consider `O=[N+]([O-])c1cc([N+](=O)[O-])c(CCN2CCOCC2)c([N+](=O)[O-])c1`, for which the activation was inactive: 0.516%.

For `Cc1ccc(OP(=O)(Nc2nccs2)Oc2ccc(C)cc2)cc1`, the activation was inactive: 0.0086%.

As to `COc1ccccc1OP(=O)(Nc1ccc(C)cn1)Oc1ccccc1OC`, the activation was inactive: 0.247%.

Turning to `CN1CCCC(OC(=O)C(c2ccccc2)c2ccccc2)C1` (stereo not drawn), the activation is inactive: -0.355%.

As for `Clc1ccc(Cl)c(NC2=NCC(CBr)S2)c1` (stereo not drawn), the activation was inactive: -0.163%.

Take `NC(=O)c1cc([N+](=O)[O-])cc([N+](=O)[O-])c1N`: the activation was inactive: 0.24%.

Turning to `Cc1ccc(N/C(=N/P(=O)(N2CCOCC2)N2CCOCC2)N2CCOCC2)cc1`, the activation was inactive: 4.55%.

On to `CN(C(=O)Cc1ccc(Cl)c(Cl)c1)[C@H]1CCCC[C@H]1N1CCCC1`, for which the activation is inactive: -0.155%.

As for `Nc1cc(N)c2nonc2c1[N+](=O)[O-]`, the activation is inactive: 0.476%.

Turning to `CC(C)CC(=O)NC(Sc1ccc(Cl)cc1)C(Cl)(Cl)Cl` (stereo not drawn), the activation is inactive: 0.095%.

With `O=C(NC(Sc1ccncn1)C(Cl)(Cl)Cl)c1ccccc1` (stereo not drawn), the activation is inactive: 0.0679%.

With `Cc1c2non([O-])c-2c(C)[n+](=O)[n+]1[O-]`, the activation is inactive: 0.218%.

Take `Oc1ccccc1CNc1ccccn1`: the activation is inactive: -0.226%.

For the compound `CC(=O)N1C2C3N(C(C)=O)C1C1N(C(C)=O)C(C(N1C(C)=O)N3C(C)=O)N2C(C)=O`, the activation was inactive: 0.192%.

For the compound `O=[N+]([O-])c1cccc2n[nH]nc12`, the activation is inactive: -0.0189%.

Regarding `O=[N+]([O-])c1cc([N+](=O)[O-])c(CCNc2ccccc2)c([N+](=O)[O-])c1`, the activation was inactive: 0.0379%.

For `CCc1nc2c(n1)c1c(non1O)c1c2no[n+]1[O-]`, the activation is inactive: -0.698%.

Take `Cc1ccc(NP(=O)(Oc2ccccc2)Oc2ccccc2)nc1`: the activation was inactive: 0.329%.

As to `COc1ccc(C2=NCC(CBr)S2)cc1` (stereo not drawn), the activation is inactive: 0.44%.

For the compound `CN(C)C(=O)OCCc1n(C)cc[n+]1C`, the activation was inactive: -0.489%.

Regarding `CC(C)=N/N=C(\N)N[N+](=O)[O-]`, the activation was inactive: -0.51%.

In the case of `CC1CCN(C(=O)Oc2c(Cl)cc(Cl)c3cccnc23)CC1`, the activation is inactive: 0.528%.

`C[N+]1=C2C=CC=CC=C2SC12C([N+](=O)[O-])=CC([N+](=O)[O-])=C[C-]2[N+](=O)[O-]` (stereo not drawn): the activation was inactive: 0.368%.

Take `Nc1ccc([As](=O)(O)c2ccc(N)cc2)cc1`: the activation is inactive: -0.83%.

Consider `CCN(/C(=N/P(=O)(N1CCOCC1)N1CCOCC1)N1CCOCC1)c1ccc(OC)cc1`, for which the activation was inactive: 0.156%.

In the case of `O=C(Nc1cc([As](=O)(O)O)ccc1O)c1ccccc1`, the activation is inactive: -0.0059%.

With `O=[N+]([O-])c1cccc(NC2=NCC(CBr)S2)c1` (stereo not drawn), the activation is inactive: -0.0506%.

In the case of `O=C(O)CNc1ccc([As](=O)(O)O)cc1`, the activation was inactive: 0.172%.

Take `CC(C)(C)C(=O)NC(Sc1ccncn1)C(Cl)(Cl)Cl` (stereo not drawn): the activation was inactive: -0.663%.

For `O=[N+]([O-])c1ncn(CCn2ncnc2[N+](=O)[O-])n1`, the activation is inactive: -0.719%.

On to `C[C@H]1OP(=O)(Oc2ccccc2)[C@H](O)[C@H](O)[C@H]1N=[N+]=[N-]` (stereo partly drawn), for which the activation is inactive: -0.471%.

For the compound `O=P(Nc1nc2ccccc2s1)(c1ccccc1)c1ccccc1`, the activation is inactive: -1.1%.

Take `CN(C)C1(CNC(=O)c2ccc(Cl)c(S(N)(=O)=O)c2)CCCCC1`: the activation is inactive: 0.504%.

`O=P(Nc1ccccn1)(c1ccc(Br)cc1)c1ccc(Br)cc1`: the activation is inactive: -0.208%.

Take `C(Cc1nn[nH]n1)Cc1nn[nH]n1`: the activation was inactive: -1.56%.

For `Nc1ccc([As](=O)(O)c2ccc([N+](=O)[O-])cc2)cc1`, the activation is inactive: -0.853%.

As for `O=C(OC1CN2CCC1CC2)c1cccc(Cl)c1` (stereo not drawn), the activation is inactive: 0.344%.

For the compound `O=[N+]([O-])c1ncn(CCn2cnc([N+](=O)[O-])n2)n1`, the activation was inactive: -0.982%.

As to `CC(=O)NC(SC(=S)N(C)C)C(Cl)(Cl)Cl` (stereo not drawn), the activation was inactive: 12.6%.

Regarding `O=[N+]([O-])c1ccc(O)c(/C=N/Nc2ccc([N+](=O)[O-])cc2[N+](=O)[O-])c1`, the activation was inactive: -0.169%.

Consider `O=[As](O)(c1ccccc1)c1ccc(O)cc1`, for which the activation is inactive: 0.0373%.

For the compound `c1nnnn1CCn1cnnn1`, the activation is inactive: -0.13%.

With `O=P(Nc1nccs1)(c1ccccc1)c1ccccc1`, the activation is inactive: 0.171%.

On to `CC(C)C(=O)NC(Sc1ccccc1)C(Cl)(Cl)Cl` (stereo not drawn), for which the activation was inactive: -0.286%.

With `CC(C)(C)C(=O)NC(Sc1ccccc1)C(Cl)(Cl)Cl` (stereo not drawn), the activation was inactive: -0.38%.

`CCOc1ccc(C2=NCC(CBr)S2)cc1` (stereo not drawn): the activation was inactive: 5.69%.

For `O=P1(Nc2nc3ccc(Cl)cc3s2)COc2ccccc2O1` (stereo not drawn), the activation is inactive: 0.286%.

For `CC(=O)Nc1ccc(Oc2c([N+](=O)[O-])cc([N+](=O)[O-])cc2[N+](=O)[O-])cc1`, the activation was inactive: 0.187%.

As to `CC(=O)Nc1ccc([As](=O)(O)O)c(O)c1`, the activation was inactive: -0.0141%.

As to `CC(=O)c1ccc(N2CC2c2ccncc2)cc1` (stereo not drawn), the activation was inactive: -0.178%.

Regarding `C[C@H]1OP(=O)(Oc2ccccc2)C[C@@H]2O[C@@H]21` (stereo partly drawn), the activation is inactive: -0.268%.

Consider `C[C@@H]1C=CCP(=O)(Oc2ccccc2)O1` (stereo partly drawn), for which the activation was inactive: -1.05%.

`Cc1ccccc1CN(C)C(=O)COC(=O)C(O)(c1ccccc1)c1ccccc1`: the activation is inactive: 0.272%.

For `O=C(NC1CCS(=O)(=O)C1)NP(=S)(Oc1ccccc1)Oc1ccccc1` (stereo not drawn), the activation was inactive: 0.544%.

As to `CCNC(=S)/N=C(\N)N[N+](=O)[O-]`, the activation is inactive: 0.307%.

`CCOC(=O)NC(Sc1ccccc1)C(Cl)(Cl)Cl` (stereo not drawn): the activation is inactive: 0.0328%.

For the compound `Cc1ccc(NP(=O)(Oc2cccc(C)c2)Oc2cccc(C)c2)nc1`, the activation was inactive: -0.226%.

As for `c1ccc(-c2nn[nH]n2)c(-c2nn[nH]n2)c1`, the activation was inactive: 10.9%.

For the compound `O=c1c2cc([N+](=O)[O-])ccc2[nH]c2c([N+](=O)[O-])cc([N+](=O)[O-])cc12`, the activation was inactive: 0.165%.

On to `CN(C)C(=O)Oc1noc2ccccc12`, for which the activation was inactive: -0.421%.

As for `CC(NC(=O)COC(=O)C(O)(c1ccccc1)c1ccccc1)c1ccccc1` (stereo not drawn), the activation was inactive: 0.226%.

Take `Cc1ccccc1OP(=O)(Nc1ccccn1)Oc1ccccc1C`: the activation was inactive: -0.264%.

Consider `Cc1ccc(OP(=O)(Nc2ccccn2)Oc2ccc(C)cc2)cc1`, for which the activation was inactive: 3.6%.

Turning to `CC(=O)NC(SC(=S)N(CC(C)C)CC(C)C)C(Cl)(Cl)Cl` (stereo not drawn), the activation was inactive: -0.773%.

As to `COC(=O)c1cc2c(s1)N=C(c1ccccc1)N(C)P2(=O)N1CCOCC1` (stereo not drawn), the activation was inactive: 0.147%.

For `CCC(=O)N1C2C3N(C(=O)CC)C1C1N(C(=O)CC)C(C(N1C(=O)CC)N3C(=O)CC)N2C(=O)CC`, the activation is inactive: 0.05%.

Regarding `O=C(OC1CN2CCC1CC2)c1ccccc1` (stereo not drawn), the activation is inactive: 0.0537%.
